For the experiment, the target named is 5-hydroxytryptamine receptor 2B (Rattus norvegicus, UniProt P30994).

Protein sequences, listed by entry. Tags and fused reporters are not part of them.
UniProt P30994, whole entry: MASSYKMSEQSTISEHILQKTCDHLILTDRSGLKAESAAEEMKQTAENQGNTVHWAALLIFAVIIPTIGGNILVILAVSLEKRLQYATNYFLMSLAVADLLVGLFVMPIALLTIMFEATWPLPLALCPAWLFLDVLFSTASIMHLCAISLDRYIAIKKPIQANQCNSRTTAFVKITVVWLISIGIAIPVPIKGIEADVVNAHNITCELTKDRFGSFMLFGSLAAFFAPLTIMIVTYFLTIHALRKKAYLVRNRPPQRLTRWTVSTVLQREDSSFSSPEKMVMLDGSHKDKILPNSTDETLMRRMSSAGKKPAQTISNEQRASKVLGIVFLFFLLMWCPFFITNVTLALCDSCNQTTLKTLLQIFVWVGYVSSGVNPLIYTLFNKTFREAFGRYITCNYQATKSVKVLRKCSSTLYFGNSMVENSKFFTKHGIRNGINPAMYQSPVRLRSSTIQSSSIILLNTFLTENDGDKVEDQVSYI

Structures are written as SMILES.

A word on the Ki: it is a dissociation constant, usually derived from enzyme kinetics or from competition with a known ligand. Low readings indicate higher affinity, high ones lower affinity. In the case of `CN1C[C@@H](NS(=O)(=O)N(C)C)C[C@@H]2c3cccc4c3c(cn4C)C[C@H]21` [MESULERGINE], the Ki was determined as 39.8 nM.

The values above are taken from BindingDB's records for doi:10.1038/sj.bjp.0703341 (Friedrich-Schiller-University Jena, 2000).
